Test results published in publication PMC5529658, “Antiproliferative and Antibacterial Activities of Cirsium scabrum from Tunisia” (Evidence-based Complementary and Alternative Medicine : eCAM, 2017).

Test system: Streptococcus agalactiae T53A4
Assay: Antimicrobial assay (MIC, agar dilution)
Assay type: cell-based
Conditions: gentamicin
Procedure: The antimicrobial activity of crude extract and partitions was evaluated against 36 pathogenic microorganisms (22 Gram-positive bacteria, 13 Gram-negative bacteria, and 1 yeast) according to Mahamodo et al.. The 36 microorganisms were grown overnight at 37°C on sloping Mueller-Hinton (MH) agar medium. Briefly, the bacteria were diluted with Ringer's Cysteine (RC) solution to obtain 10^6 bacteria/ml. In Petri dishes, 19 ml MH 2 agar was supplemented with 1 ml of stock solution of crude extract or partitions (12.5 mg/ml to 0.39 mg/ml) or antibiotics (gentamicin, vancomycin, and amoxicillin) (28 mg/ml to 6·10^−3 mg/ml), giving final concentrations from 625 to 19.5 µg/ml for the extracts and 64 to 0.03 µg/ml for antibiotics. Inocula of 10^4 colony forming units (CFU) were spotted ultimately with a multipoint inoculator (Steers Replicator).

Reference antibiotics MIC values: R (R: >8)
Structure (SMILES): CNC(C)C1CCC(N)C(OC2C(N)CC(N)C(OC3OCC(C)(O)C(NC)C3O)C2O)O1 (stereo not shown) [Gent, gentamicin]
